From ChEMBL document CHEMBL5523766 (J Med Chem, 2024) come the findings set out here.

Sequences of proteins named here, by UniProt entry; tags and fusion partners are left off. A change or cut given only in a name is not applied to a line headed by its entry.
UniProt Q13535: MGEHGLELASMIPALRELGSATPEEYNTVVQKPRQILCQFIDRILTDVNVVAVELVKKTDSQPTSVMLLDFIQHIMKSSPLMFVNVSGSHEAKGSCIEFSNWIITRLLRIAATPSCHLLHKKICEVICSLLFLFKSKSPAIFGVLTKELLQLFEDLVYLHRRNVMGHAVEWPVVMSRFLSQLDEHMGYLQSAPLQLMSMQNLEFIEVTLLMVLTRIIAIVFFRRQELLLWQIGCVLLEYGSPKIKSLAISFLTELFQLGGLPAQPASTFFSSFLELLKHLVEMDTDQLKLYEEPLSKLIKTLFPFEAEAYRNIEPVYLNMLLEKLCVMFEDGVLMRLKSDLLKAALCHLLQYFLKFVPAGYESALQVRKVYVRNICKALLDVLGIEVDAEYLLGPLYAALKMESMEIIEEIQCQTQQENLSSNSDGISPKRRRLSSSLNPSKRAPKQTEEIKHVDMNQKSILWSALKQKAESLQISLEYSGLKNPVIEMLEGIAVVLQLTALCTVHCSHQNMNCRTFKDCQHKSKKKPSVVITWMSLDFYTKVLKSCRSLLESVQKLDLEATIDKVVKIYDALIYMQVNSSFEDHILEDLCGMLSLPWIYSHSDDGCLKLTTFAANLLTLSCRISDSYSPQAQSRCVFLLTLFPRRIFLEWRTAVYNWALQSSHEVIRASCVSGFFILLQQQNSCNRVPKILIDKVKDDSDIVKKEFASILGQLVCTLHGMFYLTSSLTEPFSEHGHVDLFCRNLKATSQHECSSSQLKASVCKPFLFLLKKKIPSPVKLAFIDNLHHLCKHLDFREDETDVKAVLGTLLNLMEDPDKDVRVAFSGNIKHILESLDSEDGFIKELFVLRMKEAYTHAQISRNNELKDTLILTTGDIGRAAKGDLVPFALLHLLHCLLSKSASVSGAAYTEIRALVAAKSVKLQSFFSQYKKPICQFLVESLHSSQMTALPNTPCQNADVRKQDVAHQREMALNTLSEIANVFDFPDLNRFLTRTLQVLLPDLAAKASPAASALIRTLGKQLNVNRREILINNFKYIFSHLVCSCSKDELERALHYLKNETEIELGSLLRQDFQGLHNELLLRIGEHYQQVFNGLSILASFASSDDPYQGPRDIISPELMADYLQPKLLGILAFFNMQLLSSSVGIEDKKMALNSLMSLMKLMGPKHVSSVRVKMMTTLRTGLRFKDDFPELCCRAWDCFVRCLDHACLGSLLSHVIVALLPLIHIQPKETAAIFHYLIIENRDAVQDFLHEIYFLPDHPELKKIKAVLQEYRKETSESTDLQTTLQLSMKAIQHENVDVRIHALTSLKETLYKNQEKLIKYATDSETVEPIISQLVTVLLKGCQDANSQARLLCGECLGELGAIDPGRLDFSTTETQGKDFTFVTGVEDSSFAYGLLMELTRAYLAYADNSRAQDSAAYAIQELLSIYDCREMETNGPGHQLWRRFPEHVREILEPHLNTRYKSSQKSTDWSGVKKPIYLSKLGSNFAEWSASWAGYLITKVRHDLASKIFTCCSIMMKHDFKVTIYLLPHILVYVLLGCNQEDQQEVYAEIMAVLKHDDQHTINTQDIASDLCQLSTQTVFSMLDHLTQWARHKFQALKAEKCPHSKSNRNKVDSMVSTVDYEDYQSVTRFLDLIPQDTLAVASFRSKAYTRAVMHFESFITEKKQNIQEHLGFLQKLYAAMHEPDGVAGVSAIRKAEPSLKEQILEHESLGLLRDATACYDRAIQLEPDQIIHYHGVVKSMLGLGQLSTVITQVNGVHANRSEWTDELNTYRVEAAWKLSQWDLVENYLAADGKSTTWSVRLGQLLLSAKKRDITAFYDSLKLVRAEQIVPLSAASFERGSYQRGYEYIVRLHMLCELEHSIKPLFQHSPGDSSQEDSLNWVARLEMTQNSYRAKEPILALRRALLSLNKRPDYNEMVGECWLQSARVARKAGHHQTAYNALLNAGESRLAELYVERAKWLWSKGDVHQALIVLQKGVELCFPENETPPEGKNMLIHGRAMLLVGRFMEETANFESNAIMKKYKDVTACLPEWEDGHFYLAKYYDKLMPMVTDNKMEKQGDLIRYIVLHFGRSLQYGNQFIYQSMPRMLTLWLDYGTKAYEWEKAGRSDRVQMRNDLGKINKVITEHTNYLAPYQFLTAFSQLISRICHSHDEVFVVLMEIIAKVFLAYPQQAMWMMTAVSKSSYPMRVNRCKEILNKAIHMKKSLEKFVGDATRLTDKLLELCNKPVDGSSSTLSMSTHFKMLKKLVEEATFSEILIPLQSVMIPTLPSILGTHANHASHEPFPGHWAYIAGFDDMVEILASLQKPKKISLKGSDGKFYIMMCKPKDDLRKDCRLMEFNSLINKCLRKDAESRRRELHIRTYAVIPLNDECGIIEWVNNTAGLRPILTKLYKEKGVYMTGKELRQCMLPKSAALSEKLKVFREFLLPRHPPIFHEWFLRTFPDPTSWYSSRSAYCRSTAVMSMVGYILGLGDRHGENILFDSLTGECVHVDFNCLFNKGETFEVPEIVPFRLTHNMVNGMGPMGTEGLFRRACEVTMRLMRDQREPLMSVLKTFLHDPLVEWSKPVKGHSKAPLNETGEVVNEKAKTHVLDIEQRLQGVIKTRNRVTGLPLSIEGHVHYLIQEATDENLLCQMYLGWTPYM

In this assay the target is Serine/threonine-protein kinase ATR (Homo sapiens, UniProt Q13535). The experiment in a line: Inhibition of ATR in human Granta-519 cells assessed as downregulation of niraparib-induced CHKI phosphorylation at 2 uM in presence of PARP inhibitor niraparib by Western blot analysis. Format: cell-based. (In western blotting, separated proteins are transferred to a membrane and probed.)

Active and inactive are the calls of the source. The calls are words filed in the database; no cut-off is given here.

For `C[C@@H]1COCCN1c1nc(-c2ccnc3[nH]ccc23)nc2c1ccn2S(C)(=O)=O`, the inhibition result is “Active”.
